From patent US6391882B1, “4,5,6 and 7-indole and indoline derivatitives, their preparation and use” (H. Lundbeck A/S, priority 1998, dated 2002) come the findings set out here.

Amino acid sequences for entries named in this document (tags omitted).
UniProt P31652, whole entry: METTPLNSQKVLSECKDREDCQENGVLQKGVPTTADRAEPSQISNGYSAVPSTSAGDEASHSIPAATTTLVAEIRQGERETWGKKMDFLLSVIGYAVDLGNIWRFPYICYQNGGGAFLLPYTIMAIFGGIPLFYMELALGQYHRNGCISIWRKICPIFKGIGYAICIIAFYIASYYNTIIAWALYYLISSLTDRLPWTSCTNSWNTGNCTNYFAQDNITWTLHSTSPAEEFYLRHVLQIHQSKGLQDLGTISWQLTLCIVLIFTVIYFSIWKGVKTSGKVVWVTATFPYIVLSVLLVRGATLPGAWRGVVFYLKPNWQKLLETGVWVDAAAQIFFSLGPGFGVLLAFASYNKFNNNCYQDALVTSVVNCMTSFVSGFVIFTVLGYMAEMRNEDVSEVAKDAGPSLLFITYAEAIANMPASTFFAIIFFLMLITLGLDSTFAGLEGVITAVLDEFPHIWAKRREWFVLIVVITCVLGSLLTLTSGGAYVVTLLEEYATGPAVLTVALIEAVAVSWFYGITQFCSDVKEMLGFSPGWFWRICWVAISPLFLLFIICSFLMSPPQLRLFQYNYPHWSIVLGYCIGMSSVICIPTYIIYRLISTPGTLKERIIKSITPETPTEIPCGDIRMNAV

This test has as its target T1, Serotonin reuptake (whole rat brain synaptosomes) (Rattus norvegicus, UniProt P31652).
T1 construct: from tissue; host or cells: whole rat brain synaptosomes
Kind of test: Inhibition of 3H-5-HT uptake into rat brain synaptosomes. In kind it is biochemical. How it is done: Inhibition of ^3H-5-HT Uptake Into Rat Brain Synaptosomes
Using this method the ability of drugs to inhibit the accumulation of ^3H-5-HT into whole rat brain synaptosomes is determined in vitro.

pIC50: −log10 of the molar value.

Consider `Fc1ccc([C@@H]2CCNC[C@H]2COc2ccc3c(c2)OCO3)cc1` [Paroxetine, reference compound], for which the pIC50 (as a rule, the IC50 on a negative log10 scale, so that one unit is a factor of ten) was 9.54.
